## Membrane permeability of cyclic peptides

Values of Lee et al. 2021, doi:10.1021/acs.jmedchem.1c00211, as listed in CycPeptMPDB.

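Conditions beyond the assay type are not listed; see the original paper. The list need not hold all peptides of the study. Peptides that the database sets to -10, its floor, are left out.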

PAMPA is the parallel artificial membrane permeability assay, which has no cells and reads passive diffusion.
Caco-2 values are permeabilities across monolayers of Caco-2 human intestinal cells.
Permeability is in 10^-6 cm/s, converted from the database's log10 values; higher is more permeable.
A value with < or ≤ is an upper limit.

The entry for CCC[C@@H]1NC(=O)[C@H](CC(C)C)N(C)C(=O)[C@H](C(C)C)N(C)C(=O)[C@H](CC(C)C)N(C)C(=O)[C@H](CC(C)C)N(C)C(=O)[C@@H](C)NC(=O)[C@H](CCC(N)=O)NC(=O)[C@H](CC(C)C)N(C)C(=O)[C@H](C(C)C)NC(=O)[C@H](CC(C)C)N(C)C(=O)CN(C)C1=O lists Caco-2 0.51 × 10^-6 cm/s.
The entry for CCC[C@@H]1NC(=O)[C@H](CC(C)C)N(C)C(=O)[C@H](CC(C)C)N(C)C(=O)[C@H](CC(C)C)N(C)C(=O)[C@H](CC(C)C)N(C)C(=O)[C@@H](C)NC(=O)[C@H](CCC(N)=O)NC(=O)[C@H](CC(C)C)N(C)C(=O)[C@H](C(C)C)NC(=O)[C@H](CC(C)C)N(C)C(=O)CN(C)C1=O lists PAMPA < 0.004 × 10^-6 cm/s and Caco-2 1 × 10^-6 cm/s.